# Test results taken from PubChem BioAssay AID540364 (The Scripps Research Institute Molecular Screening Center, 2011).
# This is a selection; strong and weak results do not stand in their true shares. The source made the active and inactive calls.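 Rule for the calls: active = activation above the average of all compounds screened plus 3 SD, cutoff fixed separately per campaign (cut at about 7.5% in these data); inactive = the rest.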
# Assay: GAA850 frataxin promoter reporter upregulation – cell-based, luciferase luminescence, HEK293 lucGAA850, primary screen (AID 540364);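 note: 0% = DMSO wells and 100% = 10 µM SAHA wells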
# Settings: HEK293 lucGAA850 FXN promoter luciferase reporter, 24 h; at 6 µM; active compounds read high; percent of 10 µM SAHA response
row,Compound,activation
1,CCC(=O)N(c1ccccc1)C1(COC)CCN(CCc2cccs2)CC1,inactive: -7.19%
2,CCC(=O)N(c1ccccc1)C1(COC)CCN(CCn2nnn(CC)c2=O)CC1,inactive: -1.3%
